Source: patent US10654807B2, “Toll-like receptor 8 agonists” (The University Of Kansas, priority 2013, dated 2020)

Molecular target: T1, human TLR8 (Homo sapiens, UniProt Q9NR97)
T1 construct: HEK293 cells stably co-transfected with the appropriate hTLR, MD2, and secreted alkaline phosphatase (sAP); expressed in transfected cells; host or cells: HEK293 (HEK-Blue™)
T1 sequence (Q9NR97 27-1041): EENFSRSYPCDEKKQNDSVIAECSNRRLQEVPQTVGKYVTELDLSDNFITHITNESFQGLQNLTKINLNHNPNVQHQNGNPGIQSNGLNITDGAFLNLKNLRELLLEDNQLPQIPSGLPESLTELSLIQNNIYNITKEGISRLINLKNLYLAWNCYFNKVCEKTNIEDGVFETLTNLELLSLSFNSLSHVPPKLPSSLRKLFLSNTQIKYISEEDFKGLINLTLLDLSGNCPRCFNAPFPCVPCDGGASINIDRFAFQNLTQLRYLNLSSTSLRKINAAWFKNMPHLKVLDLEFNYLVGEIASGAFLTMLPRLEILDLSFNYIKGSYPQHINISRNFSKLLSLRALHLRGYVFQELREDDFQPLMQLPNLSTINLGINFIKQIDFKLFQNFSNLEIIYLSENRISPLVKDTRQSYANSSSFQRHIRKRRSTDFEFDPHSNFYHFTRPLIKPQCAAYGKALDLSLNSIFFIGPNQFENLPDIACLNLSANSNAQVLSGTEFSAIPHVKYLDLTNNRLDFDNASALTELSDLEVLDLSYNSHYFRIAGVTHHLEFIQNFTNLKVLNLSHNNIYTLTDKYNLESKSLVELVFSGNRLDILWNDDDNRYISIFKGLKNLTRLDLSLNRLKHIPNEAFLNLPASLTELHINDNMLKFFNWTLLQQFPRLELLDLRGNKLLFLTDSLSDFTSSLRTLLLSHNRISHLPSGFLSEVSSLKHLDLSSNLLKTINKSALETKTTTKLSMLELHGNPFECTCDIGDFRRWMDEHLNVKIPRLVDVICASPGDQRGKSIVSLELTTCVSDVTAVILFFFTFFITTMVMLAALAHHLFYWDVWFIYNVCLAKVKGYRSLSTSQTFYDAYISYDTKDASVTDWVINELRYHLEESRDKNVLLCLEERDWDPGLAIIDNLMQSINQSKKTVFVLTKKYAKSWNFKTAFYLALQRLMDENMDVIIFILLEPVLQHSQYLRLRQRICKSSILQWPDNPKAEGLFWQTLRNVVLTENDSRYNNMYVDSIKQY
Test: human TLR8-specific HEK-Blue reporter gene assay (NF-κB induction)
Type: cell-based

TLR8-agonistic potency relative to parent Compound 3 (fold greater potency than Compound 3): eight times greater
EC50 (human TLR8-specific reporter gene assays, Table 1, read-out: Agonistic Activity EC50 (μM) TLR8): 0.2 µM
Compound: CCCCCc1cc2ccccc2nc1N [Compound 14b, 3-Pentylquinolin-2-amine]
TLR8-agonistic potency relative to Compound 6b (fold greater potency than the 3-butoxy analogue): ten-fold greater
